These results are taken from ChEMBL document CHEMBL1154371, “Cytotoxic xanthone constituents of the stem bark of Garcinia mangostana (mangosteen)” (J Nat Prod, 2009).

The experiment has as its target T1, Nuclear factor NF-kappa-B p105 subunit (Homo sapiens, UniProt P19838).
T1 sequence (P19838 whole entry): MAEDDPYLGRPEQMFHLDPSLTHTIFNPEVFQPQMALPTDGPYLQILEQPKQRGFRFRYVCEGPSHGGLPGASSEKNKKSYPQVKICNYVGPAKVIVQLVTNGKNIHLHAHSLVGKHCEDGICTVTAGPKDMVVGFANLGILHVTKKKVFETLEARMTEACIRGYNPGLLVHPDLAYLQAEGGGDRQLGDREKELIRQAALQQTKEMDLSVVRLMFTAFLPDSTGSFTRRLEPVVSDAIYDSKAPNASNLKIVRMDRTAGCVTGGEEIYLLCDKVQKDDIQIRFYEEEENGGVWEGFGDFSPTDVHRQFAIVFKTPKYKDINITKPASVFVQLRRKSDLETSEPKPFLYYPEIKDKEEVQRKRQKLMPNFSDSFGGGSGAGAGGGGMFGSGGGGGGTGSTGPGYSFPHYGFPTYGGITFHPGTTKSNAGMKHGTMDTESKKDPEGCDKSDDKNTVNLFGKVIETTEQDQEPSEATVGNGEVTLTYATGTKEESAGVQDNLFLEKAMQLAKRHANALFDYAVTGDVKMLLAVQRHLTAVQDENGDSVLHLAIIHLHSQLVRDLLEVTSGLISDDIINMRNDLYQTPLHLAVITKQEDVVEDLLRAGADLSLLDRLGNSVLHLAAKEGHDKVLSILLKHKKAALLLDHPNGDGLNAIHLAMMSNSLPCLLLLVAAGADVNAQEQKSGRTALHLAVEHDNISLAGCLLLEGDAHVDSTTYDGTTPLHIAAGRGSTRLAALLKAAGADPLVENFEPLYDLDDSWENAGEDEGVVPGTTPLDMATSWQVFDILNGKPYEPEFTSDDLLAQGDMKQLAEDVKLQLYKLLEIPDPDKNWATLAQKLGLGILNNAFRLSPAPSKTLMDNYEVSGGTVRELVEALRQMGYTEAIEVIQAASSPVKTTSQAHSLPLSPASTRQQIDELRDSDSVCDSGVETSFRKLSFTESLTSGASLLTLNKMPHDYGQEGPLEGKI
Put plainly: Inhibition of p50 after 1 hr by ELISA.

Turning to `COc1ccc([C@@]23Oc4cc(OC)cc(OC)c4[C@]2(O)[C@H](O)[C@H](C(=O)N(C)C)[C@H]3c2ccccc2)cc1` [ROCAGLAMIDE], inhibition was half-maximal at 2000 nM (IC50).
